Assay results from ChEMBL document CHEMBL4665828, “Glucosylpolyphenols as Inhibitors of Aβ-Induced Fyn Kinase Activation and Tau Phosphorylation: Synthesis, Membrane Permeability, and Exploratory Target Assessment within the Scope of Type 2 Diabetes and Alzheimer's Disease” (J Med Chem, 2020).

Legend:
Saccharomyces cerevisiae = experiment: Inhibition of Saccharomyces cerevisiae alpha-glucosidase at 100 uM using p-nitrophenyl glycosides as substrate measured for 125 secs by spectrophotometry analysis relative to control; conditions: time 125.0 sec
Prunus dulcis = experiment: Inhibition of almond beta-glucosidase at 100 uM using p-nitrophenyl glycosides as substrate measured for 125 secs by spectrophotometry analysis relative to control; conditions: time 125.0 sec

Structure (SMILES) | inhibition (Saccharomyces cerevisiae) | inhibition (Prunus dulcis)
OC[C@H]1O[C@@H](c2c(O)ccc3ccccc23)[C@H](O)[C@@H](O)[C@@H]1O | 12% | –
O=C(Oc1ccc([C@@H]2O[C@H](CO)[C@@H](O)[C@H](O)[C@H]2O)cc1OC(=O)c1ccccc1)c1ccccc1 | – | 17%
